Earlier results in patent US9260731B2 (RELIANCE INDUSTRIES LIMITED, priority 2012, dated 2016).

System: biological systems
Conditions: Jones and Wood, 1986; cited from earlier work

Q: With n-butanol as the substance, how does the “butanol concentration highly toxic to biological systems” value read?
A: 2%
